Experimental data from article PMC9893515 (Bioorganic chemistry, 2021).

Molecular target: T1, recombinant human TDP2 (Homo sapiens, UniProt O95551)
T1 sequence (O95551 1-362): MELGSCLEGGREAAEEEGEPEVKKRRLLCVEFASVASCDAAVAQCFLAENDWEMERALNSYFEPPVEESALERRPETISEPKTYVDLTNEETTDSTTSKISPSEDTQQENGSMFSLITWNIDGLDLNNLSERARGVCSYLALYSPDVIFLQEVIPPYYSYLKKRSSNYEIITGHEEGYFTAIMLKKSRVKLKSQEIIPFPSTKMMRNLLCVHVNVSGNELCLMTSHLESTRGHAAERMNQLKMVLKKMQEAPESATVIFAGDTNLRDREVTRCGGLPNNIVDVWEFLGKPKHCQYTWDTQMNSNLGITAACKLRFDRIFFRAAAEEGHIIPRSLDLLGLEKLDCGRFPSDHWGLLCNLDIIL
Test: Recombinant TDP2 assay
Type: biochemical
Details: read-out: TDP2 inhibitory activity IC50, mean ± SD from at least three independent experiments
Procedure, shortened: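 Human recombinant TDP2 (25 pM) with 1 nM 18-mer 5'-phosphotyrosyl ssDNA, 3'-α32P-cordycepin-labelled. Reaction ran 15 min at room temperature in Tris-HCl pH 7.5, KCl, MgCl2, EDTA, DTT, BSA and Tween 20. Stopped with formamide loading buffer, then 16% denaturing PAGE and phosphorimaging densitometry of product. Test compounds at 3-fold dilutions, 111 to 0.46 or 0.051 μM; deazaflavin positive control. IC50 is 50% enzyme inhibition.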

Q: How did the IC50 turn out when “Ethyl-2-(hydroxymethyl)-4,9-dioxo-4,9-dihydrofuro[2,3-g]quinoline-3-carbo-xylate [Compound 48]” was run?
A: > 111 µM
